Experimental data taken from patent US20090143392A1, “Methods of Treating Obesity and Metabolic Disorders” (ELBION GMBH, priority 2007, published 2009).

The chains behind the UniProt entries cited, without tags or fusion partners. Residues count along the entry.
UniProt Q9QYJ6, whole entry: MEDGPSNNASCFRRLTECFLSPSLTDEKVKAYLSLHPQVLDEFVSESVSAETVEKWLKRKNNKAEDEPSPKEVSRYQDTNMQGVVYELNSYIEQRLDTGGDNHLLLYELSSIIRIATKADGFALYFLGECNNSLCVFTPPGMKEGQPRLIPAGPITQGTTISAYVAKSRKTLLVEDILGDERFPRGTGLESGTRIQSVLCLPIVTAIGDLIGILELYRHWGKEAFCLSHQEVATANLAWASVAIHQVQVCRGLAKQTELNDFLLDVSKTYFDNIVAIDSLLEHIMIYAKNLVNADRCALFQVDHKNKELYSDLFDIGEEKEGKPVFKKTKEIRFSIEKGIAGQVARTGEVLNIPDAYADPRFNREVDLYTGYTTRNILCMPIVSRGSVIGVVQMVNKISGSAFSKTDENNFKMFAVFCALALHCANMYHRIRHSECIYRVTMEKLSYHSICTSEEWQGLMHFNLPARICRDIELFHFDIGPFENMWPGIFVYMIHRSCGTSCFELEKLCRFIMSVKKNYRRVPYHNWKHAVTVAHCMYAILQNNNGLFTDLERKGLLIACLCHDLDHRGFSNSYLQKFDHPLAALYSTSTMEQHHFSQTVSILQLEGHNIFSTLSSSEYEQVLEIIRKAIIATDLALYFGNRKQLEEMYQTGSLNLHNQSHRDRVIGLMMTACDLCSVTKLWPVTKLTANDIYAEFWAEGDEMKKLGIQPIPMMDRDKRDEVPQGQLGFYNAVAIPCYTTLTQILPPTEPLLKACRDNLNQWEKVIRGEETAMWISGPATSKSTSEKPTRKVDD
UniProt A0A287B941, 1-1069: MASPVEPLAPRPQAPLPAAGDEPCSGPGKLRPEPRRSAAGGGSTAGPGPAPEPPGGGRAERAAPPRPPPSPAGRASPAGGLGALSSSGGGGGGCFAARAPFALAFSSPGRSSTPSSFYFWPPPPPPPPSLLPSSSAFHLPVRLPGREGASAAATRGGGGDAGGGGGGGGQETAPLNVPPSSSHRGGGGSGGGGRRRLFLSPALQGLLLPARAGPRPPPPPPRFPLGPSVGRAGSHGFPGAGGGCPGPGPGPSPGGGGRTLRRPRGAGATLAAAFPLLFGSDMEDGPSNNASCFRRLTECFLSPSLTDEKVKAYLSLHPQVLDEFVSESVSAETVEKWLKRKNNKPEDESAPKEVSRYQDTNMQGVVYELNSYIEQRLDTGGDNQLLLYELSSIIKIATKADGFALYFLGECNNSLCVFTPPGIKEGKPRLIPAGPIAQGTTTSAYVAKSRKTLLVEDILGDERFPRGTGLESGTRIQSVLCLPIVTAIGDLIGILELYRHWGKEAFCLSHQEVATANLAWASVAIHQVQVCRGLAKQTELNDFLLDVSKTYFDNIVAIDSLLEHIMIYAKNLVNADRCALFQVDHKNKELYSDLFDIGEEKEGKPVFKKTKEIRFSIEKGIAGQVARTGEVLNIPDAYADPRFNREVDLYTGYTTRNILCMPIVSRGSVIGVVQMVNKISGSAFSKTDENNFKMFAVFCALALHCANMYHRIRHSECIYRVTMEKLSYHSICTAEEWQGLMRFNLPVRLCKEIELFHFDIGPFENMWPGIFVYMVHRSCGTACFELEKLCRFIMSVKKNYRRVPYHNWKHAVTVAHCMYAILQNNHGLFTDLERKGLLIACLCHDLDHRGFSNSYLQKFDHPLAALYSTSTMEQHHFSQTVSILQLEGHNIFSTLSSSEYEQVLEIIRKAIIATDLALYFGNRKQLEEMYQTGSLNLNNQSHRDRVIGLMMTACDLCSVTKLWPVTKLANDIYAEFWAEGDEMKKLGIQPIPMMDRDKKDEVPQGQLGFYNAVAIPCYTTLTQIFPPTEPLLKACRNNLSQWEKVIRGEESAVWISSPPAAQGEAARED

Assays:
PDE10 from rat striatum = PDE10 from rat striatum (Rattus norvegicus, UniProt Q9QYJ6); assay: Inhibition of PDE10 from rat striatum; format: biochemical; details: read-out: Inhibition of PDE10 from rat IC50, 0.1 μM [3H]-cAMP, 37° C., 30 minutes
PDE10 from pig striatum = PDE10 from pig striatum (Sus scrofa, UniProt A0A287B941); assay: Inhibition of PDE10 from pig striatum; format: biochemical; details: read-out: Inhibition of PDE10 from pig IC50, 0.1 μM [3H]-cAMP, 37° C., 30 minutes

IC50 (PDE10 from rat striatum): 23 nM
IC50 (PDE10 from pig striatum): 17 nM
SMILES: CCc1nc(C)c2c(Cl)nc3ccc(OC)nc3n12
